Reference: patent US8536168B2 (Novartis AG, priority 2007, dated 2013)
Where two headings read alike, the source gives them in different places.

By UniProt entry, the sequences of proteins in these tests, tags left out. Residues count along the entry.
UniProt P56726, 33-793 limits assumed: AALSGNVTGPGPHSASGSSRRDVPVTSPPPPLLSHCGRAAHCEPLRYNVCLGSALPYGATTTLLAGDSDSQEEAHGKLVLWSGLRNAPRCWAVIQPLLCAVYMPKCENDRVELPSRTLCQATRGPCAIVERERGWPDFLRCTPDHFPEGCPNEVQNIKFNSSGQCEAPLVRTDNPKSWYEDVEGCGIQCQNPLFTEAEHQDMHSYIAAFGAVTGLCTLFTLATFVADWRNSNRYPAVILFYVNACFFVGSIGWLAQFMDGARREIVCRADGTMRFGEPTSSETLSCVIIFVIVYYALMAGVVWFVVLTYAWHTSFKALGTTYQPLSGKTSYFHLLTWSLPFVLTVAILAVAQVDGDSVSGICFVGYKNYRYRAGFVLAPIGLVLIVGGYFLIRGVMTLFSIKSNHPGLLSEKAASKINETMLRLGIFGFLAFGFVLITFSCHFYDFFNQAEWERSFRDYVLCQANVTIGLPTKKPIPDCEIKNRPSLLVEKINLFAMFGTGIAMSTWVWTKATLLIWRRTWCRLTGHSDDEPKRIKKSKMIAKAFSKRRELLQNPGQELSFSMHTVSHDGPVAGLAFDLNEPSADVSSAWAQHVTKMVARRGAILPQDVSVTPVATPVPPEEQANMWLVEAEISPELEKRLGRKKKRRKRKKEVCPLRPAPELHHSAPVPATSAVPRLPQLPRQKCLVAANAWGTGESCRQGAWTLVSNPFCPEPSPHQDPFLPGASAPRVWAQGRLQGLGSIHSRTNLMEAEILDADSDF
UniProt Q99835, 28-787 limits assumed: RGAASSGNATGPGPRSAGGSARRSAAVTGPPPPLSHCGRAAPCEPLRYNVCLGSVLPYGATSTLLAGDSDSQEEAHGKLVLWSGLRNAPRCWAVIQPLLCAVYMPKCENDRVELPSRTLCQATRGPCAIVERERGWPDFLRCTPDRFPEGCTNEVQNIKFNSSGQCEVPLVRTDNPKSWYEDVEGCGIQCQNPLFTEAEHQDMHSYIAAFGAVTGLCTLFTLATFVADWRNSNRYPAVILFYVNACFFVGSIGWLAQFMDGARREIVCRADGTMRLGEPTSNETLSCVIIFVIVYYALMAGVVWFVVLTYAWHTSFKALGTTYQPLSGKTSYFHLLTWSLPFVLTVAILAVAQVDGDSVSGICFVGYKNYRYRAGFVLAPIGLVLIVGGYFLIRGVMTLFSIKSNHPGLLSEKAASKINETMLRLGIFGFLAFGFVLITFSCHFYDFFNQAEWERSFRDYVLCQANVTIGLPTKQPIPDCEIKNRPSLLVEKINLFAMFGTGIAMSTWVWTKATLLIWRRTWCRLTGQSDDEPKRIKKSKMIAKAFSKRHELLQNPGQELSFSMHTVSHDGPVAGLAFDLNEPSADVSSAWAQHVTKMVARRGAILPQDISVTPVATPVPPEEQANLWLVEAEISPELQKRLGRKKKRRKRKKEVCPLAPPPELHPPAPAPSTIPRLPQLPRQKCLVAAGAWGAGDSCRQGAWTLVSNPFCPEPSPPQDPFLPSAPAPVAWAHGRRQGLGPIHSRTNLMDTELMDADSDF

Columns and labels:
[1] = test system: Gli-luciferase activity; assay: Reporter gene assay (RGA) in TMHh12 cells, antagonism of Gli-luciferase activity in the presence of a Smo agonist
[2] = target: mouse Smoothened receptor (Mus musculus, UniProt P56726); assay: Smo binding assay, displacement of radio-labeled smoothened agonist, filter binding format (mouse); details: read-out: Mouse Smo bdg., IC50, displacement of small molecule agonist of Smoothened
[3] = target: human Smoothened receptor (Homo sapiens, UniProt Q99835); assay: Smo binding assay, displacement of radio-labeled smoothened agonist, filter binding format (human); details: read-out: Human Smo bdg., IC50, displacement of small molecule agonist of Smoothened
From the text: A Smo binding assay was developed using radio-labeled smoothened agonist for compound competition. Table 9 lists the IC50 for displacement of a small molecule agonist of Smoothened determined in a filter binding format for the mouse and human Smoothened receptor.

[4] = read-out: RGA (1 nM Smo agonist) IC50, 1 nM small molecule Smo agonist
[5] = read-out: RGA (25 nM Smo agonist) IC50, 25 nM small molecule Smo agonist

| SMILES | IC50 [1, 4] | IC50 [1, 5] | IC50 [2] | IC50 [3] |
| --- | --- | --- | --- | --- |
| COC(=O)c1ccc(CN2CCN(c3nnc(Cc4ccccc4)c4ccccc34)CC2)nc1 | 100 to 1000 nM | 1000 to 10000 nM | 1000 to 10000 nM | 1000 to 10000 nM |
| Cc1cc(N2CCN(c3ccc(C(F)(F)F)cn3)CC2)nnc1Cc1ccc(F)cc1 | < 100 nM | – | < 100 nM | < 100 nM |
| OC1CN(Cc2ccc(N3CCN(c4nnc(Cc5ccccc5)c5ccccc45)CC3)nc2)C1 | < 100 nM | 100 to 1000 nM | 100 to 1000 nM | 100 to 1000 nM |
